Measured values taken from US20080160077A1, “Soft Gel Formulations” (Zymes, LLC, priority 2006, published 2008).

Experiment: Particle size distribution of micelles in water by dynamic light scattering (DLS)
Assay type: physicochemical
Details: diluted with water, 25° C.
Method: Formulations of PTS and CoQ10 (3:1) as well as PTS alone were diluted with water (8×, 16×, and 32× mg/mL). […] The resulting solutions were filtered through a filter cartridge to remove dust particles, transferred to a glass sample tube and placed into an oil bath for temperature control. The particle size distribution of the formed micelles in the formulations were subsequently measured at 25° C. using a Brookhaven Dynamic Light Scattering (DLS) detector equipped with an Avalanche photodiode detector and an MG vertically polarized 35 mmV Helium-Neon 633 nm laser.

With “polyoxyethanyl-tocopherol-sebacate [PTS]” the “size distribution width compared with CoQ10/PTS formulations” value was “broader”.
